The record followed here is published antibiotic growth screens (doi:10.1038/s41589-023-01349-8).

The list shows a part of the results.

This experiment concerns A. baumannii ATCC 17978. The experiment can be described thus: relative growth (fraction of control); higher = less inhibition. The following applies: 50 µM.
In turn, `O=C(C[C@@H]1CC[C@@H](NC(=O)CN2CCOCC2)[C@H](CO)O1)NCCc1ccccc1` yielded a relative growth of 0.923. In turn, `Cc1nc(-c2ccc(Cl)cc2)c(-c2ccccc2)s1` displayed a relative growth of 0.657. In the case of `CCOC(=O)[C@H](CCc1ccccc1)N[C@H]1CCc2ccccc2N(CC(=O)O)C1=O.Cl` it was 1.04. In the case of `CCCNC(=O)N[C@H]1CC[C@@H](CC(=O)N2CCN(C)CC2)O[C@H]1CO` it was 0.947; in that of `CCNC(=O)C[C@@H]1CC[C@@H](NC(=O)C2CCOCC2)[C@@H](CO)O1`, 1.03.

Consider `O=C(C[C@@H]1CC[C@@H]2[C@H](COC[C@H](O)CN2S(=O)(=O)c2ccc(Oc3ccccc3)cc2)O1)NC1CCC1`, for which the relative growth stood at 0.784. For the molecule `O=C(C[C@@H]1C=C[C@H](NS(=O)(=O)c2ccc(F)cc2)[C@@H](CO)O1)NCCN1CCCCC1`, the relative growth was determined as 1.04. For `CC(C)(C)OC(=O)Nc1ccccc1`, the relative growth came out at 1.03. In the case of `Cc1cccc(NC(=O)C[C@H]2NCCNC2=O)c1` it was 1; in that of `Cn1c(=O)c2c(nc(NCCN)n2C)n(C)c1=O`, 0.946.

For the molecule `O=S(=O)([O-])NC1CCCCC1.[Na+]`, the relative growth came to 1.18. In the case of `Cn1cnc(S(=O)(=O)N[C@@H]2CC[C@H](CC(=O)Nc3ccccc3)O[C@@H]2CO)c1` it was 0.952. `Cn1cnc(S(=O)(=O)N[C@H]2C=C[C@H](CC(=O)N3CCN(c4ccccc4)CC3)O[C@@H]2CO)c1`: the relative growth turned out to be 1.16. Regarding `Cn1c(CNc2ccccc2)cc(=O)n(C)c1=O`, the relative growth worked out at 0.96. As to `COCC#Cc1ccc2c(c1)O[C@H](CN(C)C(=O)COC)[C@H](C)CN([C@H](C)CO)S2(=O)=O`, the relative growth was found to be 0.991. Consider `Cc1ccccc1-c1ncc(-c2ccc(Br)cc2)o1`, for which the relative growth is 0.825. In the case of `COCC(=O)Nc1ccc2c(c1)[C@H]1C[C@H](CC(=O)N3CCOCC3)O[C@@H](CO)[C@H]1O2` it was 1.04. In the case of `C[C@@H]1CN([C@@H](C)CO)S(=O)(=O)c2ccc(-c3cccc(F)c3)cc2O[C@H]1CN(C)S(C)(=O)=O` it was 0.929; in that of `C=CCC[C@@H](Cc1ccc(F)cc1)C(=O)O[C@@H](CNC(=O)[C@@H](CC=C)CC(=O)N[C@@H](CO)Cc1ccccc1)c1ccccc1`, 0.958; in that of `O=C(CN1CCOCC1)N[C@@H]1CC[C@H](CCNC(=O)C2CCC2)O[C@@H]1CO`, 1. `C[C@H](O)C#Cc1ccc2c(c1)O[C@@H](CN(C)C(=O)C1CCCCC1)[C@@H](C)CN([C@H](C)CO)S2(=O)=O` came in with a relative growth of 1.16. The molecule `CC(=NNC(=O)c1nnn(-c2nonc2N)c1CN1CCC(C)CC1)c1cccc(Br)c1` gave a relative growth of 1.27. For the molecule `CO[C@@H](CN(C)S(=O)(=O)c1ccc(F)cc1)[C@H](C)CN([C@@H](C)CO)S(=O)(=O)c1cccc(Cl)c1`, the relative growth was determined as 0.726. To `CC(=O)O[C@@H]1CC2C(C)(C)C(=O)CC[C@]2(C)C2CC[C@@]3(C)[C@H](c4ccoc4)OC(=O)C4OC43[C@@]21C` (stereo partly specified) belongs 1.24; to `CC(=O)Oc1ccc2c(C)cc(=O)oc2c1`, 0.894. In turn, `Cc1cccc(C)c1NC(=O)C1CCCCN1C.Cl` (stereo unspecified) showed a relative growth of 1.04. Molecule `O=C(C[C@@H]1CC[C@@H]2[C@H](COC[C@H](O)CN2S(=O)(=O)c2ccc(Cl)cc2)O1)N[C@@H]1CCN(Cc2ccccc2)C1` registered a relative growth of 0.933. In the case of `COc1ccc(C#Cc2ccc3c(c2)[C@]2(C(=O)N3)[C@H](C(=O)N3CCc4cc(OC)c(OC)cc4C3)[C@H]3C(=O)O[C@H](c4ccccc4)[C@H](c4ccccc4)N3[C@@H]2c2ccc(OCCO)cc2)cc1` it was 1.31. `C[C@@H](O)C#Cc1ccc2c(c1)O[C@@H](CN(C)C)[C@@H](C)CN([C@@H](C)CO)S2(=O)=O` came in with a relative growth of 1. For the molecule `Cn1c(=O)c2[nH]cnc2n(C)c1=O.NCCN`, the relative growth worked out at 0.908. `O=C(N/N=C/[C@@H](O)[C@H](O)[C@H](O)CO)c1ccccn1`: the relative growth turned out to be 1.03. In the case of `CC(C)CC#Cc1ccc2c(c1)O[C@@H](CN(C)C(=O)C1CCOCC1)[C@@H](C)CN([C@H](C)CO)S2(=O)=O`, the relative growth is 0.795. To `C1CNCCN1` belongs 0.927; to `Cc1ccc(Oc2ccccc2)c(NC(=O)c2ccccc2)c1`, 0.828; to `COc1c2occc2c(OC)c2c(=O)cc(C)oc12`, 0.931. In turn, `COc1ccc(/C=C/C(=O)c2ccccc2)cc1` yielded a relative growth of 0.891. In the case of `Cc1cc2nc3ccc(N(C)C)cc3[s+]c2cc1N.[Cl-]` it was 1.57.

Regarding `O=C(Nc1cccc2ccccc12)c1ccc(C(F)(F)F)cc1`, the relative growth turned out to be 1.06. In the case of `NC(=O)NCC#Cc1ccc2c(c1)[C@]1(C(=O)N2)[C@H](c2ccccc2OCCO)N2[C@H](c3ccccc3)[C@H](c3ccccc3)OC(=O)[C@H]2[C@@H]1C(=O)O` it was 1.11. In the case of `Cl.N=C(N/N=C/c1ccc(Cl)cc1)N/N=C/c1ccc(Cl)cc1` it was 0.358; in that of `Nc1nonc1C(=O)OCC(=O)N1CCOCC1`, 1.04. For `Nc1cc(C(Cl)=C(Cl)Cl)c(S(N)(=O)=O)cc1S(N)(=O)=O`, the relative growth amounted to 1.25. As to `C[C@@H]1CN([C@@H](C)CO)S(=O)(=O)c2ccc(C#CC3CC3)cc2O[C@@H]1CN(C)C(=O)C1CCCCC1`, the relative growth is 0.904. To `S=C1NCN(CCc2ccccc2)CN1` belongs 0.896; to `c1ccc(Nc2nc(-c3ccccc3)nc3ccccc23)cc1`, 1.04; to `CC1=C(/C=C/C(C)=C/C=C/C(C)=C/C=C/C=C(C)/C=C/C=C(C)/C=C/C2=C(C)C(=O)C(O)CC2(C)C)C(C)(C)CC(O)C1=O` (stereo unspecified), 1.21.

In turn, `C[C@H]1CN([C@@H](C)CO)S(=O)(=O)c2ccc(Br)cc2O[C@H]1CN(C)C(=O)C1CCCCC1` came in with a relative growth of 1.1. The molecule `N[C@@H](CC(=O)O)c1cccc(O)c1` had a relative growth of 0.98. In turn, `COCC(=O)N(C)C[C@@H]1Oc2cc(-c3ccc(OC)cc3)ccc2S(=O)(=O)N([C@H](C)CO)C[C@@H]1C` had a relative growth of 1.13. To `CN1CCN(c2c(F)cc3c(=O)c(C(=O)O)cn(CCF)c3c2F)CC1` belongs 0.15; to `CC1=NN2C(=NN[C@@]2(C)c2ccccc2)NC1=O`, 0.867; to `O=C(C[C@H]1CC[C@@H](NC(=O)c2cnccn2)[C@H](CO)O1)NCc1ccccc1F`, 0.947. To `Cc1cccc(Oc2ccc(NC(=O)C3CCC(C)CC3)cc2)c1` (stereo unspecified) belongs 1.16; to `N[C@](CC1c2ccccc2Oc2ccccc21)(C(=O)O)[C@H]1C[C@@H]1C(=O)O`, 1.12; to `COc1ccc(NC(=O)Nc2ccc3c(c2)[C@@H]2C[C@H](CC(=O)NCc4ccc(-c5ccccc5)cc4)O[C@@H](CO)[C@@H]2O3)cc1`, 0.814. `COc1ccc(S(=O)(=O)N[C@H]2CC[C@@H](CCNC(=O)CN3CCOCC3)O[C@H]2CO)cc1` had a relative growth of 1. `CC(=O)OCC(CCn1cnc2cnc(N)nc21)COC(C)=O` came in with a relative growth of 1.27. With `COc1ccc(S(=O)(=O)N[C@H]2CC[C@H](CC(=O)N3CCC(Cc4ccccc4)CC3)O[C@H]2CO)cc1`, the relative growth amounted to 0.748. Consider `Cc1cc([N+](=O)[O-])nn1CC(=O)NC(C)C`, for which the relative growth turned out to be 1.12. Regarding `CC(=O)c1ccc2c(c1)N(CCCN(C)C)c1ccccc1S2.O=C(O)/C=C\C(=O)O`, the relative growth was 0.822. In the case of `O=c1[nH]c(=O)n(C2C[C@H](O)[C@@H](CO)O2)cc1/C=C/Br` (stereo partly specified) it was 0.992; in that of `Cc1cc2nc3c(=O)[nH]c(=O)nc-3n(C[C@@H](O)[C@@H](O)[C@@H](O)CO)c2cc1C`, 0.926. To `O=[N+]([O-])c1ncn(Cc2ccccn2)n1` belongs 0.819. In the case of `C=CC[C@@H](CC(=O)N[C@@H](CO)Cc1ccccc1)C(=O)N1CCC[C@@H]1COC(=O)[C@@H](CC=C)NC(=O)OCC1c2ccccc2-c2ccccc21` it was 1.07; in that of `CC(/C=C1\SC(=S)N(CC(=O)O)C1=O)=C\c1ccccc1`, 1.1; in that of `Cc1ccc(C(=O)N(CC(N)=O)CC(N)=O)cc1`, 1.06. The molecule `CC(=O)OCC(=O)[C@@]1(O)CCC2C3CCC4=CC(=O)C=CC4(C)C3[C@@H](O)C[C@@]21C` (stereo partly specified) displayed a relative growth of 1.03. To `CN(/N=C/c1ccncc1)C1=NCCN1` belongs 1.01.

The molecule `O=C1c2ccccc2C(=O)c2c1ccc(O)c2O` came in with a relative growth of 0.996. To `CO[C@H](CN(C)C(=O)c1ccccc1F)[C@@H](C)CN([C@H](C)CO)S(=O)(=O)c1ccc(Cl)cc1` belongs 0.997; to `COc1ccc(S(=O)(=O)N(C)C[C@H]2Oc3cc(C4=CCCC4)ccc3S(=O)(=O)N([C@H](C)CO)C[C@@H]2C)cc1`, 1.1. To `O=C(C[C@H]1C=C[C@@H](NS(=O)(=O)c2ccccc2)[C@@H](CO)O1)NCc1ccncn1` belongs 1.04; to `CN1C=C(C(=O)OCCS(C)(=O)=O)C(C(=O)OCCS(C)(=O)=O)=CC(c2ccc(CO)cc2)=C[C@@H]1C1CC1`, 1.01.

In the case of `C=CC[C@H](CC(=O)N(CCO)Cc1ccccc1)C(=O)N[C@H](COC(=O)[C@@H](CC=C)CC(=O)OC(C)(C)C)Cc1c[nH]c2ccccc12`, the relative growth worked out at 1.11.

As for `O=C(NCCN1CCOCC1)c1ccccn1`, the relative growth was 1.02. To `C[C@H](CO)N1C[C@H](C)[C@H](CN(C)Cc2ccccc2F)Oc2cc(C#CCN(C)C)ccc2S1(=O)=O` belongs 0.877. In the case of `O=C(NCCCN1CCOCC1)[C@H]1[C@@H]2C=C[C@@]3(CN(Cc4cccs4)C(=O)[C@@H]13)O2` it was 1.18. Molecule `COc1ccccc1-c1cnc2c(c1)C(=O)N([C@@H](C)CO)C[C@@H](C)[C@H](CN(C)C(=O)c1cccnc1)O2` yielded a relative growth of 1.07. In the case of `O=c1oc2ccccc2c(O)c1Cc1c(O)c2ccccc2oc1=O` it was 1.05; in that of `CO[C@@H](CN(C)S(=O)(=O)c1cccc(Cl)c1)[C@H](C)CN([C@@H](C)CO)S(=O)(=O)c1ccc(Cl)cc1`, 0.937; in that of `Cn1nc2c(c1N)CCC2`, 0.923. In the case of `CO[C@@H]1CN(C)C(=O)c2ccc(NC(=O)Nc3ccc(Cl)cc3)cc2OC[C@H](C)N(C(=O)Nc2c(C)noc2C)C[C@@H]1C` it was 0.812; in that of `CC(C)NC(=O)N(C)C[C@@H]1Oc2cc(C#Cc3ccc(F)cc3)ccc2S(=O)(=O)N([C@@H](C)CO)C[C@H]1C`, 0.823.

As to `CN1CCN(C(=O)C[C@H]2CC[C@@H]3[C@H](COC[C@@H](O)CN3S(=O)(=O)c3cccc(Cl)c3)O2)CC1`, the relative growth is 1.08. To `Cc1ccc(S(=O)(=O)N2CCO[C@@H]2CNC(=O)C(=O)NCc2ccccn2)cc1` belongs 1.07; to `CC(C)NC(=O)N[C@H]1C=C[C@@H](CC(=O)NCCN2CCCC2)O[C@H]1CO`, 0.853.
